Key:
[1] = molecular target: T1, Sodium-dependent serotonin transporter (Rattus norvegicus, UniProt P31652); experiment: Inhibition of rat brain Serotonin transporter as accumulation of [3H]5-HT; type: functional
[2] = molecular target: T2, Sodium-dependent dopamine transporter (Rattus norvegicus, UniProt P23977); experiment: Inhibition of rat brain dopamine transporter as accumulation of [3H]DA; type: functional
[3] = molecular target: T3, Norepinephrine transporter (Rattus norvegicus, UniProt Q9WTR4); experiment: Inhibition of rat brain Norepinephrine transporter as accumulation of [3H]NE; type: functional
[4] = molecular target: T1, Sodium-dependent serotonin transporter; experiment: Inhibition of rat brain Serotonin transporter uptake as [3H]5-HT accumulation
[5] = molecular target: T2, Sodium-dependent dopamine transporter; experiment: Inhibition of rat brain Dopamine transporter uptake as [3H]DA accumulation; type: functional
[6] = molecular target: T2, Sodium-dependent dopamine transporter; experiment: Inhibition of [3H]WIN-35428 binding to rat brain dopamine transporter
[7] = molecular target: T3, Norepinephrine transporter; experiment: Inhibition of rat brain Norepinephrine transporter as accumulation of [3H]-NE; type: functional

Chains of the proteins cited; added tags and fusions are not shown.
UniProt P31652, whole entry: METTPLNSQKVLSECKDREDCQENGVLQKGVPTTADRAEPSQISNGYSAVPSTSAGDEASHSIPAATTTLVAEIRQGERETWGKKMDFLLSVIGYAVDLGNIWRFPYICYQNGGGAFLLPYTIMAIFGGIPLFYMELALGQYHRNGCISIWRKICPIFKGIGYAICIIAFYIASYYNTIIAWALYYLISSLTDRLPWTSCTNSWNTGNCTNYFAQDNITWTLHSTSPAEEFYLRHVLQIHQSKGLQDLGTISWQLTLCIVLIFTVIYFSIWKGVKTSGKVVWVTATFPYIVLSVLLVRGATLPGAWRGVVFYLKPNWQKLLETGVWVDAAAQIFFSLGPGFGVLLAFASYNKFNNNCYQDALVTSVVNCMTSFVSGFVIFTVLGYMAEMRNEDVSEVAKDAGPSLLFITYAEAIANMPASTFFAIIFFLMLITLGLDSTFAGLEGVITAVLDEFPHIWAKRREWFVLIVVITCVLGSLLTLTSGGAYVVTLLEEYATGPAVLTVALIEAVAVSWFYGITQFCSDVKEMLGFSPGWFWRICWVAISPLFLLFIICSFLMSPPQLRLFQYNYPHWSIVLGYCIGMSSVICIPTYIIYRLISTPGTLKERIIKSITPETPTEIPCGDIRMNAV
UniProt P23977, whole entry: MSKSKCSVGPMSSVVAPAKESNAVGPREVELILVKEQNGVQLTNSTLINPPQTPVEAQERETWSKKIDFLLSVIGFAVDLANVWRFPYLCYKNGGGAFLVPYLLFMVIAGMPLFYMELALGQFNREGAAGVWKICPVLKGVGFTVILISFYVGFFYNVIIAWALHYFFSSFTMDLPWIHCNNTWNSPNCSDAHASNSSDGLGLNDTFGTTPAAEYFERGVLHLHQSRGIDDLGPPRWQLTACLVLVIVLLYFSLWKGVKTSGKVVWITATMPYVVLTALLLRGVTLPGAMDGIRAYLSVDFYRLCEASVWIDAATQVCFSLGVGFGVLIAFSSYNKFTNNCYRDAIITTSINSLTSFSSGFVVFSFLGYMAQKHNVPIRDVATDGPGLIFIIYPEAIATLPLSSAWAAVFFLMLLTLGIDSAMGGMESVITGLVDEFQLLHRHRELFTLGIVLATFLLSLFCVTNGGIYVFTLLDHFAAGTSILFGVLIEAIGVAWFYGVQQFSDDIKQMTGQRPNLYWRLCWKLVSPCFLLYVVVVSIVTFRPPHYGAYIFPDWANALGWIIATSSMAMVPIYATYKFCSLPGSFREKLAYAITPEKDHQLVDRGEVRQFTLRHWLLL
UniProt Q9WTR4, whole entry: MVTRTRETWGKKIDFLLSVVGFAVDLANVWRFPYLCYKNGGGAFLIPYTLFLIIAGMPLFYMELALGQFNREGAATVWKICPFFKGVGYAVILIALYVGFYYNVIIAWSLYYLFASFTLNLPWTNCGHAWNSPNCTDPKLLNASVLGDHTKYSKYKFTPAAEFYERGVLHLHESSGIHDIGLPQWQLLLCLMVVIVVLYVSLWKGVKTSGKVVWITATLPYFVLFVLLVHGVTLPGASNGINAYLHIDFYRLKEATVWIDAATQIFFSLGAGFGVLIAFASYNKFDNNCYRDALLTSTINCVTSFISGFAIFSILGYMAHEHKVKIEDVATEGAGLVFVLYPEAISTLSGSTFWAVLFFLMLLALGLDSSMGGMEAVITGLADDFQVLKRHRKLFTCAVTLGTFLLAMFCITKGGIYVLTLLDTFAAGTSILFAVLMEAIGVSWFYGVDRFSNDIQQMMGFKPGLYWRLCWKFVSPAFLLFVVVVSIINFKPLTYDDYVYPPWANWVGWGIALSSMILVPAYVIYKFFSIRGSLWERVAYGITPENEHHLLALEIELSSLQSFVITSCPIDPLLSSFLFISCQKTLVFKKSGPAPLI

`COc1ccc(CN[C@@H]2CO[C@H](C(c3ccccc3)c3ccccc3)C[C@H]2O)cc1` was tested, and the Ki [1] was 25.9 nM, the Ki [2] was 115 nM and the IC50 [3] was 17.7 nM.

`COc1ccc(CNC2COC(C(c3ccccc3)c3ccccc3)CC2O)cc1` (single isomer, unassigned) gave an IC50 [4] of 745 nM, an IC50 [5] of 148 nM and a Ki [1] of 669 nM. For the same compound, the Ki [2] was 110 nM, the IC50 [6] was 182 nM and the IC50 [3] was 445 nM.

With `Fc1ccc(C(OCCN2CCN(CCCc3ccccc3)CC2)c2ccc(F)cc2)cc1` [VANOXERINE] the Ki [7] was 102 nM and the IC50 [3] was 114 nM.
